Reference: US8927501B2, “αvβ6 peptide ligands and their uses” (priority 2005, dated 2015)

Sequences of proteins named here, by UniProt entry; tags and fusion partners are left off. Residues count along the entry.
UniProt P06756, 31-992 limits assumed: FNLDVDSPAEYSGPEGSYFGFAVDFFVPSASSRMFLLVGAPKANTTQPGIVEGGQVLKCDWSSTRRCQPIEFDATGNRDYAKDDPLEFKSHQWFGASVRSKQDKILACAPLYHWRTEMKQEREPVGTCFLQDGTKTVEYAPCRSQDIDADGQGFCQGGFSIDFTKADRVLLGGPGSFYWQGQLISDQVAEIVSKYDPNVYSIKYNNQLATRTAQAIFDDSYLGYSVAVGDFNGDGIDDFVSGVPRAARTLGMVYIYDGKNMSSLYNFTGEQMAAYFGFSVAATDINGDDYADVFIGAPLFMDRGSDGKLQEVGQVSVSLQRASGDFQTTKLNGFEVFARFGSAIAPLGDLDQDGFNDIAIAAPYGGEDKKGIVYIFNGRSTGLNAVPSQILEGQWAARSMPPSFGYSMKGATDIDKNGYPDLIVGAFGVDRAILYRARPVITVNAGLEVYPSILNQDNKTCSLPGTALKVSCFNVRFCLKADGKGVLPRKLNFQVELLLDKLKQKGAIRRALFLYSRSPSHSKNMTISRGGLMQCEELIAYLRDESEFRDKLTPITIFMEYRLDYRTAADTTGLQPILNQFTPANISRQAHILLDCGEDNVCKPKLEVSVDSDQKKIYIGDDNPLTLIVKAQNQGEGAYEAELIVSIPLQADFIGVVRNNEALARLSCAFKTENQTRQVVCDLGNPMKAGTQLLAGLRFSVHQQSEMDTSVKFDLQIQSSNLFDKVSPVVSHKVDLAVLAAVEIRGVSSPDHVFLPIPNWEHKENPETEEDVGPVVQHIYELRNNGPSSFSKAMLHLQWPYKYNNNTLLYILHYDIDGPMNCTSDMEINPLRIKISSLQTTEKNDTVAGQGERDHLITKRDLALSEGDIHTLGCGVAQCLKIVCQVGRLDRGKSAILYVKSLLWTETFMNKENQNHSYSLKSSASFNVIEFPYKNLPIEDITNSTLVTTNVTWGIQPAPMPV
UniProt P06756, 31-1048: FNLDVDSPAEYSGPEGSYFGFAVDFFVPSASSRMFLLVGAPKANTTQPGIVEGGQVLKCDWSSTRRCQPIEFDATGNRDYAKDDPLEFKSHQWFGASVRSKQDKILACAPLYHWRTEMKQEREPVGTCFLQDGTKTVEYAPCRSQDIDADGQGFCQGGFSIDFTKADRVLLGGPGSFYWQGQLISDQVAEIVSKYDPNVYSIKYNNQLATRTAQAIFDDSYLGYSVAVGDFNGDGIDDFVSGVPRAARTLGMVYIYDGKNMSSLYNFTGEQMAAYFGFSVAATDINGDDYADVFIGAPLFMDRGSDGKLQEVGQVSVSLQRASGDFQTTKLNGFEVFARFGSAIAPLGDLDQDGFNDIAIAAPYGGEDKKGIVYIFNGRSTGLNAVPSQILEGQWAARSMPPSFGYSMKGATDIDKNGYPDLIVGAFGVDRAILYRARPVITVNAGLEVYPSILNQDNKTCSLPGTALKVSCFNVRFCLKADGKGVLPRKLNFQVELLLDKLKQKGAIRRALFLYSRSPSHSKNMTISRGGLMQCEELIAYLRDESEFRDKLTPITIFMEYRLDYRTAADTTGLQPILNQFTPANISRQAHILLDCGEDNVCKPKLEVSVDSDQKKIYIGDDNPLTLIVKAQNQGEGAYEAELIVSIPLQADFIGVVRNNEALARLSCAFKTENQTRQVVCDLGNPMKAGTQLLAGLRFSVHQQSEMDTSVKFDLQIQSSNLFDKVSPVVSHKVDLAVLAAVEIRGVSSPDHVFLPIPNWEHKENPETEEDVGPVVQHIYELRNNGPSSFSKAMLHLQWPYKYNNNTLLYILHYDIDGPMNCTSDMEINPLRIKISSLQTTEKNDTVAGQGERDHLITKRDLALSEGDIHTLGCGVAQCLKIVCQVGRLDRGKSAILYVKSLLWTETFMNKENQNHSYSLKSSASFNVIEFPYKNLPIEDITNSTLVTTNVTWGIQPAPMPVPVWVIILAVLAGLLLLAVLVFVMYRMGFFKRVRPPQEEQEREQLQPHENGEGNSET
UniProt P18564, 22-709 limits assumed: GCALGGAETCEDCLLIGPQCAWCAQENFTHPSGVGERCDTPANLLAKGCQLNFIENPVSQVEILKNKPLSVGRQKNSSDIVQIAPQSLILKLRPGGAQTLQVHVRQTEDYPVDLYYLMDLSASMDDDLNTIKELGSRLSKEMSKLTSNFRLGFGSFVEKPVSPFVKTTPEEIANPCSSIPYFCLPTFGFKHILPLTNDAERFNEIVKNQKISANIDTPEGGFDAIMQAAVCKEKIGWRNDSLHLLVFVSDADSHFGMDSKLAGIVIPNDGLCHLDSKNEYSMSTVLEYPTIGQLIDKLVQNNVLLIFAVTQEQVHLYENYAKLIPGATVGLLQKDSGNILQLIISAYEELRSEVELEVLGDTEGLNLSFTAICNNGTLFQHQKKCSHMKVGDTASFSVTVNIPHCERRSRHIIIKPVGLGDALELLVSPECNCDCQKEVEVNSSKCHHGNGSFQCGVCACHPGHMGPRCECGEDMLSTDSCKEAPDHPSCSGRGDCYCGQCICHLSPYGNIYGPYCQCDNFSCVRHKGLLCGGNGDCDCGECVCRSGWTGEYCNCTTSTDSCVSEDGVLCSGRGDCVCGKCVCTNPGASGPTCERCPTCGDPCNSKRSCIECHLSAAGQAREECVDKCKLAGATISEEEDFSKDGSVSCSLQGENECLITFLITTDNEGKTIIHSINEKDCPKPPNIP
UniProt P18564, 22-788: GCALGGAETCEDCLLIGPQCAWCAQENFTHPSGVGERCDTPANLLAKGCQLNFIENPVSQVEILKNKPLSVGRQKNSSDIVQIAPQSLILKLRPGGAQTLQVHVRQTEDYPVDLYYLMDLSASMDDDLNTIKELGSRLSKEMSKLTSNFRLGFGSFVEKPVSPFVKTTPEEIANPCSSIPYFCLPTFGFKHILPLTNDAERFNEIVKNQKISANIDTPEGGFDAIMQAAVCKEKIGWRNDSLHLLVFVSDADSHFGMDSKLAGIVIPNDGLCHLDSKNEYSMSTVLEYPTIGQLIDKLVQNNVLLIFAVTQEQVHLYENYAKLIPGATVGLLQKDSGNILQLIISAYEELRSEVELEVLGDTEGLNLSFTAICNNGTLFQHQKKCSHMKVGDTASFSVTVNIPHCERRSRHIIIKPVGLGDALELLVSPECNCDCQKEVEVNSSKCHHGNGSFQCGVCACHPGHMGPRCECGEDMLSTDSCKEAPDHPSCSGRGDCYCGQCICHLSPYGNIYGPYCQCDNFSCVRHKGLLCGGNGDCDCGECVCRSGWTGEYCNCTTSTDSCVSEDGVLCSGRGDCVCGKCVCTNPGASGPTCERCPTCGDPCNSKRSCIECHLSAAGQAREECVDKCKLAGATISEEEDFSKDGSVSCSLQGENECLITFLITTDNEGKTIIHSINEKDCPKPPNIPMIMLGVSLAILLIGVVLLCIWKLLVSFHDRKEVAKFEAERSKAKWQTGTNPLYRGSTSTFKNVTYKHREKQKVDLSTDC

Columns and labels:
[1] = target: rsαvβ6 (Homo sapiens, UniProt P06756+P18564); assay: biochemical; format: binding
[2] = target: T1, αvβ6 (Homo sapiens, UniProt P06756+P18564); assay: Cell adhesion assay: αvβ6-dependent adhesion of VB6 cells to LAP; format: cell-based
T1 construct: endogenous in cells; host or cells: VB6 human oral squamous cell carcinoma

CC(C)C[C@H](NC(=O)[C@H](CC(=O)O)NC(=O)CNC(=O)[C@H](CCCNC(=N)N)NC(=O)[C@H](CC(C)C)NC(=O)[C@H](CC(N)=O)NC(=O)[C@@H]1CCCN1C(=O)[C@@H](NC(=O)[C@H](C)NC(=O)[C@@H](N)CC(N)=O)C(C)C)C(=O)N[C@@H](CCC(N)=O)C(=O)N[C@H](C(=O)N[C@@H](CC(C)C)C(=O)N[C@@H](C)C(=O)N[C@@H](CCC(N)=O)C(=O)N[C@@H](CCCCN)C(=O)N[C@H](C(=O)N[C@@H](C)C(=O)N[C@@H](CCCNC(=N)N)C(=O)N[C@H](C(=O)O)[C@@H](C)O)C(C)C)C(C)C [A20FMDV2]
IC50 [1]: 15.6 nM
IC50 [2]: 1540 ± 400 nM
